{
  "source": "patent US9522128B2",
  "about": "(FUNDACION PARA LA INVESTIGACION BIOMEDICA DEL HOSPITAL …, priority 2008, dated 2016)",
  "origin": "cited, not measured here",
  "details": "7 or close to 7; cited from earlier work",
  "data": [
    {"substance": "Cyclosporin A", "values": [
      {"measurement": "nature (neutral, anionic, apolar) at physiological pH", "result": "apolar"}
    ]}
  ]
}
